Experimental data taken from PubChem BioAssay AID603 (National Center for Advancing Translational Sciences (NCATS), 2007).
Only a part is listed here, and it is no random draw. Calls of active or inactive are those of the source. Calls come from the whole dose curve; as a rule, active = well fitted curve in the direction sought with a large enough effect; inconclusive = small, poorly fitted or top-dose-only effect; inactive = flat fitted curve, though single readings scatter.

system: DNA polymerase III holoenzyme (E. coli); assay: qHTS Assay for Inhibitors of DNA Polymerase III Holoenzyme System; conditions: reconstituted DNA polymerase III holoenzyme replication, biochemical; at 57.1 µM (top of the series)
Experimental: NIH Molecular Libraries Screening Centers Network [MLSCN]
NIH Chemical Genomics Center [NCGC]
Assay Provider: Charles McHenry, University of Colorado
E. coli DNA polymerase III holoenzyme complex was assayed for DNA production by fluorescent detection of the double-stranded DNA product with PicoGreen dye. The holoenzyme complex was reconstituted from the following purified protein components: DNA Polymerase III, beta subunit processivity factor, SSB single-stranded DNA binding protein, and Primase. Single-stranded, circular M13Gori was used as a substrate with dNTPs and NTPs also supplied to the substrate reagent. Compounds from the NCGC collection were incubated with the holoenzyme mixture for 15 min at room temperature to allow binding to occur, and then the reaction was started by the addition of substrate. […] Reaction progress was measured in a ViewLux CCD imager in fluorescence intensity mode by using 480 nm excitation and 540 nm emission filter set. […]
Three uL of holoenzyme mixture were dispensed to 1536-well Greiner black solid bottom plates. […] After room temperature incubation for 35 minutes, 1 uL of PicoGreen solution was added to each well and the plates were read 480 nm excitation and 540 nm emission using ViewLux (Perkin-Elmer) High-throughput CCD imager and fluorescence protocol settings. […]
% is set by controls: 0 for no effect and ±100 for the full control effect.

SMILES | activity change, negative = inhibition
O=[N+]([O-])C(Cl)(Cl)Cl | inactive: 4.1%
CN(CCCl)CCCl | inactive: -0.6%
